Source: article PMC5937119 (Bioconjugate chemistry, 2017)
Like-named read-outs stand apart in the source and are kept apart here.

Key:
[1] = Micelle size and shape by DLS and TEM; assay type: physicochemical; details: FRET-capable PAs (Figure 3)
HeLa cells = experiment: Pulse treatment: internalization, intracellular cleavage; assay type: cell-based, human; details: for FRET signaling in cells by 6 h after incubation: HeLa cells incubated 1 h with PA then washed, followed for 6 h; for Intracellular localization 1 h following incubation: HeLa cells, 2.5 μM PA with 0.1 μM Alexa Fluor 647 transferrin, Figure 6
[2] = previously reported PA; cited from earlier work
[3] = target: Recombinant human liver cathepsin-B (Homo sapiens, UniProt P07858); experiment: Cathepsin-B cleavage of dual-dye-labeled peptides on resin; assay type: biochemical; details: peptide on resin, supernatant at 3 and 24 h, plate reader, triplicates; Figure S4

| Substance | Micelle shape [1] | FRET signaling in cells by 6 h after incubation (HeLa cells; Figure 5) | FRET signal in cells at 3 h following incubation (HeLa cells; HeLa cells pulsed with 2.5 μM PA for 1 h and washed, Figure 5) | Intracellular localization 1 h following incubation (HeLa cells) | Micelle shape [2] | Tamra fluorescence in the media following catB addition (enzymolysis of internal p53(14–29) amino acids) [3] |
| --- | --- | --- | --- | --- | --- | --- |
| diC16–GGG–p53(14–29): noncleavable control p53(14–29) peptide amphiphile with diC16 tail, GGG linker, FAM and Tamra dyes | spherical micelles | decreased but still remained | retained | transferrin-positive early endosomes |  |  |
| diC16–p53(14–29): previously reported p53(14–29) peptide amphiphile with diC16 tail |  |  |  |  | rod-like, elongated micelles |  |
| GGG–p53(14–29): noncleavable p53(14–29) peptide on resin with FAM and Tamra fluorophores |  |  |  |  |  | minimal |
| diC16–VC–PABA–p53(14–29): cathepsin-B cleavable p53(14–29) peptide amphiphile with diC16 tail, VC–PABA linker, FAM and Tamra dyes | spherical micelles | almost undetectable |  | transferrin-positive early endosomes |  |  |
